Structures can show the parent of a compound that is named as a salt.
Test system: MOR
Type: cell-based, murine

Structure (SMILES): C=CCN1CC[C@]23c4c5ccc(O)c4O[C@H]2C(=O)CC[C@@]3(O)[C@H]1C5 [naloxone, Naloxone hydrochloride dihydrate]
- reversal of DAMGO-induced mGsi recruitment by MOR antagonist: rapidly reversed

Reference: paper PMC7041944 (eLife, 2020)
